Results as given in patent US9587266B2, “Mutant luciferases” (University of Massachusetts, priority 2011, dated 2017).

The chains behind the UniProt entries cited, without tags or fusion partners.
UniProt P08659, whole entry F247L/L286M: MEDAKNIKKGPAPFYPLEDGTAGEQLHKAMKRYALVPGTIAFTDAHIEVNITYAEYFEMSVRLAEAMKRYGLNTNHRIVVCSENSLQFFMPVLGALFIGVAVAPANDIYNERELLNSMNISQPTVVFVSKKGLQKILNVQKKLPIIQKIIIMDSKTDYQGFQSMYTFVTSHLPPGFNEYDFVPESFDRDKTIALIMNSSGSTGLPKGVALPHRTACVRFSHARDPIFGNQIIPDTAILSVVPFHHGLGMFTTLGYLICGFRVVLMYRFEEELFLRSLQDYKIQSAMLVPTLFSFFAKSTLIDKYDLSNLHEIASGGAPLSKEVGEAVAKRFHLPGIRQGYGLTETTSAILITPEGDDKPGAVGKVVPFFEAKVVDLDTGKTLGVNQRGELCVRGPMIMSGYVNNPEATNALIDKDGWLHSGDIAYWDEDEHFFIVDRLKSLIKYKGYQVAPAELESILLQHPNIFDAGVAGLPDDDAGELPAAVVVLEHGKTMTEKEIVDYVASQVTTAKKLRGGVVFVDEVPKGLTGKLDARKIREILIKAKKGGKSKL
UniProt P08659, whole entry I351A: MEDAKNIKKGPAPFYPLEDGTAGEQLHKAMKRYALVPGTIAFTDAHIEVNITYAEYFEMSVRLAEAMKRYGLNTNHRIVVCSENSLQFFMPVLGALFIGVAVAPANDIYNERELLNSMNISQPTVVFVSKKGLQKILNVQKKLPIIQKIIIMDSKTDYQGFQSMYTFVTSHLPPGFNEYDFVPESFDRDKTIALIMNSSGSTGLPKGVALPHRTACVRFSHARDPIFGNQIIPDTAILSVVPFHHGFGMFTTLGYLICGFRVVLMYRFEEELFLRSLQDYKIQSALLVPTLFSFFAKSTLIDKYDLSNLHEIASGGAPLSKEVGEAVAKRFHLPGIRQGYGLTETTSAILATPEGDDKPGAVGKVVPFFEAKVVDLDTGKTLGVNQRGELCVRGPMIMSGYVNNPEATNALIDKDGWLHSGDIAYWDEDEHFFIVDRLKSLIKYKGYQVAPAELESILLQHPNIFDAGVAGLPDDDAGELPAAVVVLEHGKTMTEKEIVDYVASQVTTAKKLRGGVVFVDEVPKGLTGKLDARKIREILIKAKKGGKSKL

Key:
F247L L286M luciferase = target: T1, F247L L286M luciferase (Photinus pyralis, UniProt P08659, F247L/L286M); experiment: Bioluminescence emission scan; type: biochemical
T1 construct: The full firefly (Photinus pyralis) luciferase gene was PCR amplified from pGL3 (Promega); GST (N, cleaved yes); made in house; host or cells: E. coli JM109
Protocol: (§1) Purified mutant luciferases were used in bioluminescence emission and burst kinetics scans.
(§2) Luciferase was rapidly injected into a cuvette containing substrate, and the emission from 400-800 nm was recorded in a SPEX FluoroMax-3 fluorimeter with closed excitation slits.

I351A luciferase = target: T2, I351A luciferase (Photinus pyralis, UniProt P08659, I351A); experiment: Bioluminescence emission scan; type: biochemical
T2 construct: The full firefly (Photinus pyralis) luciferase gene was PCR amplified from pGL3 (Promega); GST (N, cleaved yes); made in house; host or cells: E. coli JM109
Protocol: as §1, §2

**Q.** How did the “Wavelength at Max. Emission” value (F247L L286M luciferase) turn out when `O=C(O)[C@H]1CSC(c2nc3ccc(O)cc3s2)=N1` [D-Luciferin, D-luciferin] was run?
**A.** The value was 570 nm.

**Q.** And the “Wavelength at Max. Emission” value (I351A luciferase)?
**A.** The value was 570 nm.
